Source: ChEMBL document CHEMBL5365479, “Development of Potent and Selective Coactivator-Associated Arginine Methyltransferase 1 (CARM1) Degraders” (J Med Chem, 2023)
Values belong to the compound of their own block, whether it stands above or below them. Active and inactive are the calls of the source. The rule behind the calls is not given here.

Protein sequences, listed by entry. Tags and fused reporters are not part of them. Lines headed by an entry give the natural chain unless they say otherwise; changes in a name come on top.
UniProt Q86X55: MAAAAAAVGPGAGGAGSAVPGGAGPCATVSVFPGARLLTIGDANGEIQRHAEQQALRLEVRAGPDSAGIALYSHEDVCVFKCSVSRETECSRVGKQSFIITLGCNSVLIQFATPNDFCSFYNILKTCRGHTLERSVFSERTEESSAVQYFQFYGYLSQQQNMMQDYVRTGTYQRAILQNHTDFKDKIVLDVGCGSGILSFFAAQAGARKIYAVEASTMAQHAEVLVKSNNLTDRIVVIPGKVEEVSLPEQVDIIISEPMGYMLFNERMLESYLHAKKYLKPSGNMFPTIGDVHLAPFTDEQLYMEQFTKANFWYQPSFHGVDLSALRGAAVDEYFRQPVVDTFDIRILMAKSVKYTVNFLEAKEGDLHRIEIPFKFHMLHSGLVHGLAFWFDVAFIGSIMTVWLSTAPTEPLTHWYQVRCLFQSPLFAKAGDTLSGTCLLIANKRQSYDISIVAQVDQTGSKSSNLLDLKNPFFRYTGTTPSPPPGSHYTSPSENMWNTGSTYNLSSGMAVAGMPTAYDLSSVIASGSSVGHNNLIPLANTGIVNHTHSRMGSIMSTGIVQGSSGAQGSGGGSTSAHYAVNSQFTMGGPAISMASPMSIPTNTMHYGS
UniProt P40337, whole entry, looked up: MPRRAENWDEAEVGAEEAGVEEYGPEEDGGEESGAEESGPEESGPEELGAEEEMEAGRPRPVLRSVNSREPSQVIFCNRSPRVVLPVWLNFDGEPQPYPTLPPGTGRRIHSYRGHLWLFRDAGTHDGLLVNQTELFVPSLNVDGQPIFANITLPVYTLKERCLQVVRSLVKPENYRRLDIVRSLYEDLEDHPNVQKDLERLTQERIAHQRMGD
UniProt O14744, whole entry: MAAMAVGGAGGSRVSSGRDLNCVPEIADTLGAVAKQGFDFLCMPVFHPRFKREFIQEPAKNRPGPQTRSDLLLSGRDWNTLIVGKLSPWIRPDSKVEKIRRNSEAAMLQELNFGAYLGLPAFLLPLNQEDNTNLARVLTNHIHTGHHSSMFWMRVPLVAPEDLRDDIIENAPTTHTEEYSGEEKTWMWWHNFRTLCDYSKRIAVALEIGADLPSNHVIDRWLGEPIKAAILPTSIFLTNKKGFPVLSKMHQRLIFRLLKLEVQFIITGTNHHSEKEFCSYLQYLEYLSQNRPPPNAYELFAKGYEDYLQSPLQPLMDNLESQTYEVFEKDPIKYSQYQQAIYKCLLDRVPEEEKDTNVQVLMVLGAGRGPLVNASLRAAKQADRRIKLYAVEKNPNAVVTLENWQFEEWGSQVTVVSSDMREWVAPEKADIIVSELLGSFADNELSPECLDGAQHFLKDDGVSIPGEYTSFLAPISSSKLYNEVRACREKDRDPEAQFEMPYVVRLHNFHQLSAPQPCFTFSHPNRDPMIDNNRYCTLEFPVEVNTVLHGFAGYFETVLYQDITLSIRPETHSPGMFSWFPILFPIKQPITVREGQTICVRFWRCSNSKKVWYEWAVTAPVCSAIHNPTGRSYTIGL
UniProt Q96LA8, whole entry, looked up: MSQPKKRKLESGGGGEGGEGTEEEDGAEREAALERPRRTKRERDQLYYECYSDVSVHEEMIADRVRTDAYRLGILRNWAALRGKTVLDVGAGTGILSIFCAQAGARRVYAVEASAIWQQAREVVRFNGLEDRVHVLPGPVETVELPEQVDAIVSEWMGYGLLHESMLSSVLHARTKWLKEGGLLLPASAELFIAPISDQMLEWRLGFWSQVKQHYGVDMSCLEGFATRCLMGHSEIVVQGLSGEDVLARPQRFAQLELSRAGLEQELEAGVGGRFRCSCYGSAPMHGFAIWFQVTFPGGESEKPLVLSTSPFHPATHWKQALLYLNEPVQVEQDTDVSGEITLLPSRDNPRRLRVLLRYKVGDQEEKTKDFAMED
UniProt Q99873, whole entry, looked up: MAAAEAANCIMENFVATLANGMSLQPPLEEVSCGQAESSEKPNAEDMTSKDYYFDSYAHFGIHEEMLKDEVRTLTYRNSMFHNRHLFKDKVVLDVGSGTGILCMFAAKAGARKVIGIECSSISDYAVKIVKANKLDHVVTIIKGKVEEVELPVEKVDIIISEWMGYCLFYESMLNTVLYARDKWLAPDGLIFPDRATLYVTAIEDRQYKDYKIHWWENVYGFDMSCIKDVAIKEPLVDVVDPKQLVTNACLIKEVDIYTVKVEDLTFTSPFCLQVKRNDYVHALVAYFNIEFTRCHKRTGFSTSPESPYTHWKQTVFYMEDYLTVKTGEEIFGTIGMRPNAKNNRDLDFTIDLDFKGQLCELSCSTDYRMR

Assays:
[1] = biological target: T1, von Hippel-Lindau disease tumor suppressor/Histone-arginine methyltransferase CARM1 (Homo sapiens) (UniProt Q86X55+P40337); test: PROTAC activity at VHL/CARM1 in human MCF7 cells assessed as induction of CARM1 degradation at 0.5 uM incubated for 24 hrs by Western blot analysis; type: cell-based
MDA-MB-231 [2] = test: Inhibition of cell migration in human MDA-MB-231 cells at 10 uM incubated for 20 hrs by crystal violet staining based transwell migration assay; type: functional
[3] = biological target: T1, von Hippel-Lindau disease tumor suppressor/Histone-arginine methyltransferase CARM1 (Homo sapiens); test: PROTAC activity at VHL/CARM1 in human MCF7 cells assessed as induction of CARM1 degradation at 0.5 to 1.0 uM incubated for 24 hrs by Western blot analysis; type: cell-based; conditions: dose 0.5-1 µM
[4] = biological target: T1, von Hippel-Lindau disease tumor suppressor/Histone-arginine methyltransferase CARM1 (Homo sapiens); test: PROTAC activity at VHL/CARM1 in ER and HER2 positive human BT-474 cells assessed as induction of CARM1 degradation at 0.5 uM incubated for 24 to 48 hrs by Western blot analysis; type: cell-based; conditions: time 24-48 hrs
[5] = biological target: T1, von Hippel-Lindau disease tumor suppressor/Histone-arginine methyltransferase CARM1 (Homo sapiens); test: PROTAC activity at VHL/CARM1 in human MCF-10A cells assessed as induction of CARM1 degradation at 6.25 to 500 nM by Western blot analysis; type: cell-based; conditions: dose 6.25-500 nM
[6] = biological target: Protein arginine N-methyltransferase 5 (Homo sapiens) (UniProt O14744); test: Induction of PRMT5 degradation in human MCF7 cells at 0.01 to 10 uM incubated for 24 hrs by Western blot analysis; type: cell-based; conditions: dose 0.01-10 µM
MDA-MB-231 [7] = test: Inhibition of cell migration in human MDA-MB-231 cells at 0.5 uM incubated for 20 hrs by crystal violet staining based transwell migration assay; type: functional
[8] = biological target: T1, von Hippel-Lindau disease tumor suppressor/Histone-arginine methyltransferase CARM1 (Homo sapiens); test: PROTAC activity at VHL/CARM1 in human MCF7 cells assessed as induction of CARM1 degradation at 0.01 to 10 uM incubated for 24 hrs by Western blot analysis; type: cell-based; conditions: dose 0.01-10 µM
[9] = biological target: T1, von Hippel-Lindau disease tumor suppressor/Histone-arginine methyltransferase CARM1 (Homo sapiens); test: PROTAC activity at VHL/CARM1 in human MCF7 cells assessed as induction of CARM1 degradation at 0.5 uM incubated for 24 hrs in the presence of MLN4924 by Western blot analysis; type: cell-based
[10] = biological target: Protein arginine N-methyltransferase 6 (Homo sapiens) (UniProt Q96LA8); test: Induction of PRMT6 degradation in human MCF7 cells at 0.01 to 10 uM incubated for 24 hrs by Western blot analysis; type: cell-based; conditions: dose 0.01-10 µM
MCF7 [11] = test: Effect on PRMT1 protein expression in human MCF7 cells at 25 nM incubated for 4 hrs by LC-MS/MS analysis; type: functional, cell-based
[12] = biological target: T1, von Hippel-Lindau disease tumor suppressor/Histone-arginine methyltransferase CARM1 (Homo sapiens); test: PROTAC activity at VHL/CARM1 in triple negative human MDA-MB-231 cells assessed as induction of CARM1 degradation at 0.5 uM incubated for 24 to 48 hrs by Western blot analysis; type: cell-based; conditions: time 24-48 hrs
[13] = biological target: T1, von Hippel-Lindau disease tumor suppressor/Histone-arginine methyltransferase CARM1 (Homo sapiens); test: PROTAC activity at VHL/CARM1 in human MCF7 cells assessed as induction of CARM1 degradation at 0.5 uM incubated for 24 hrs in the presence of TP-064 by Western blot analysis; type: cell-based
MCF7 [14] = test: Effect on PRMT5 protein expression in human MCF7 cells at 25 nM incubated for 4 hrs by LC-MS/MS analysis; type: functional, cell-based
[15] = biological target: T1, von Hippel-Lindau disease tumor suppressor/Histone-arginine methyltransferase CARM1 (Homo sapiens); test: PROTAC activity at VHL/CARM1 in human MCF7 cells assessed as induction of CARM1 degradation at 0.5 uM incubated for 24 hrs in the presence of VH-032 by Western blot analysis; type: cell-based
[16] = biological target: T1, von Hippel-Lindau disease tumor suppressor/Histone-arginine methyltransferase CARM1 (Homo sapiens); test: PROTAC activity at VHL/CARM1 in human MCF7 cells assessed as induction of CARM1 degradation at 0.5 uM incubated for 2 to 48 hrs by Western blot analysis; type: cell-based; conditions: time 2-48 hrs
MCF7 [17] = test: Antiproliferative activity against human MCF7 cells assessed as reduction in cell viability at 0.5 uM incubated for 7 days by high contrast bright field microscopic analysis; type: functional, cell-based; conditions: time 7.0 day
MDA-MB-231 [18] = test: Antiproliferative activity against human MDA-MB-231 cells assessed as reduction in cell viability at 0.5 uM incubated for 7 days by high contrast bright field microscopic analysis; type: functional, cell-based; conditions: time 7.0 day
MCF7 [19] = test: Downregulation of CARM1 protein expression in human MCF7 cells at 25 nM incubated for 4 hrs by LC-MS/MS analysis; type: functional, cell-based
[20] = biological target: T1, von Hippel-Lindau disease tumor suppressor/Histone-arginine methyltransferase CARM1 (Homo sapiens); test: PROTAC activity at VHL/CARM1 in human MCF7 cells assessed as induction of CARM1 degradation at 0.5 uM incubated for 24 hrs in the presence of MG132 by Western blot analysis; type: cell-based
MCF7 [21] = test: Downregulation of FAM129B protein expression in human MCF7 cells at 25 nM incubated for 4 hrs by LC-MS/MS analysis; type: functional, cell-based
[22] = biological target: Protein arginine N-methyltransferase 1 (Homo sapiens) (UniProt Q99873); test: Induction of PRMT1 degradation in human MCF7 cells at 0.01 to 10 uM incubated for 24 hrs by Western blot analysis; type: cell-based; conditions: dose 0.01-10 µM
[23] = biological target: T1, von Hippel-Lindau disease tumor suppressor/Histone-arginine methyltransferase CARM1 (Homo sapiens); test: PROTAC activity at VHL/CARM1 in human MCF7 cells assessed as induction of CARM1 degradation by Western blot analysis; type: cell-based

SMILES: CNCCN1CCC(c2cc(CN(C)C(=O)c3cccc(Oc4ccc(OC(=O)N5CCC(CN6CCC(CN7CCN(CC(=O)N[C@H](C(=O)N8C[C@H](O)C[C@H]8C(=O)N[C@@H](C)c8ccc(-c9scnc9C)cc8)C(C)(C)C)CC7)CC6)CC5)cc4)c3)ccn2)CC1
Activity [1]: inactive

SMILES: CNCCN1CCC(c2cc(CN(C)C(=O)c3cccc(Oc4ccccc4)c3)ccn2)CC1
inhibition (MDA-MB-231 [2]): Active

SMILES: CNCCN1CCC(c2cc(CN(C)C(=O)c3cccc(Oc4ccc(OCC(=O)NCCc5ccc(OCCCCCC(=O)N[C@H](C(=O)N6C[C@H](O)C[C@H]6C(=O)N[C@@H](C)c6ccc(-c7scnc7C)cc6)C(C)(C)C)cc5)cc4)c3)ccn2)CC1
Activity [3]: Active

SMILES: COCCN1CCC(c2cc(CN(C)C(=O)c3cccc(Oc4ccc(OCC(=O)N5CCC(CN6CCC(CN7CCN(CC(=O)N[C@H](C(=O)N8C[C@H](O)C[C@H]8C(=O)N[C@@H](C)c8ccc(-c9scnc9C)cc8)C(C)(C)C)CC7)CC6)CC5)cc4)c3)ccn2)CC1
Activity [23]: inactive
Activity (MCF7 [19]): inactive

SMILES: CNCCN1CCC(c2cc(CN(C)C(=O)c3cccc(Oc4ccc(OCC(=O)NCCc5ccc(OCCCCCCC(=O)N[C@H](C(=O)N6C[C@H](O)C[C@H]6C(=O)N[C@@H](C)c6ccc(-c7scnc7C)cc6)C(C)(C)C)cc5)cc4)c3)ccn2)CC1
Activity [3]: Active

Second part, led by results:

Activity [1]: Active
SMILES: CNCCN1CCC(c2cc(CN(C)C(=O)c3cccc(Oc4ccc(CCC(=O)N5CCC(CN6CCC(CN7CCN(CC(=O)N[C@H](C(=O)N8C[C@H](O)C[C@H]8C(=O)N[C@@H](C)c8ccc(-c9scnc9C)cc8)C(C)(C)C)CC7)CC6)CC5)cc4)c3)ccn2)CC1

Activity [1]: inactive
SMILES: CNCCN1CCC(c2cc(CN(C)C(=O)c3cccc(Oc4ccc(CC(=O)N5CCC(CN6CCC(CN7CCN(CC(=O)N[C@H](C(=O)N8C[C@H](O)C[C@H]8C(=O)N[C@@H](C)c8ccc(-c9scnc9C)cc8)C(C)(C)C)CC7)CC6)CC5)cc4)c3)ccn2)CC1

Activity [4]: Active
Activity [5]: Active
Activity [6]: inactive
Activity [8]: Active
Activity [9]: inactive
Activity [10]: inactive
Activity [12]: Active
Activity [13]: inactive
Activity [15]: inactive
Activity [16]: Active
Activity [20]: inactive
Activity [22]: inactive
SMILES: CNCCN1CCC(c2cc(CN(C)C(=O)c3cccc(Oc4ccc(OCC(=O)N5CCC(CN6CCC(CN7CCN(CC(=O)N[C@H](C(=O)N8C[C@H](O)C[C@H]8C(=O)N[C@@H](C)c8ccc(-c9scnc9C)cc8)C(C)(C)C)CC7)CC6)CC5)cc4)c3)ccn2)CC1
inhibition (MDA-MB-231 [7]): Active
Activity (MCF7 [11]): inactive
Activity (MCF7 [14]): inactive
Activity (MCF7 [17]): inactive
Activity (MDA-MB-231 [18]): inactive
Activity (MCF7 [19]): Active
Activity (MCF7 [21]): Active
